Sequences of proteins named here, by UniProt entry; tags and fusion partners are left off.
UniProt Q9Y572, whole entry: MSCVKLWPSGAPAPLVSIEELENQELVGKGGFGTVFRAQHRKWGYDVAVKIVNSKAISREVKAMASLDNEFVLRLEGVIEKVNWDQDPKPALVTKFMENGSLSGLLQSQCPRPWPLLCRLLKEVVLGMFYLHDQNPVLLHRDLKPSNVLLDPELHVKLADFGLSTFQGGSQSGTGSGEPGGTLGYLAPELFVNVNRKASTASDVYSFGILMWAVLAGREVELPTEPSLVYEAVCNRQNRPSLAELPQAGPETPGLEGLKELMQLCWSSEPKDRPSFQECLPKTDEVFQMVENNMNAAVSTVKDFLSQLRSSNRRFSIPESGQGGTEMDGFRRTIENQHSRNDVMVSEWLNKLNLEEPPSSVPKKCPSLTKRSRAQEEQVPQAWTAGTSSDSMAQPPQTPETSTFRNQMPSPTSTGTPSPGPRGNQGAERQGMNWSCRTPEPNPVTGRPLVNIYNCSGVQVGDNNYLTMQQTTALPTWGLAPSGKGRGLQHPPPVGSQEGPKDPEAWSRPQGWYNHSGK

In US10301306B2, “Substituted dihydro-1H-pyrrolo[3,2-c]pyridin-4(5H)-ones as RIPK3 inhibitors” (BRISTOL-MYERS SQUIBB COMPANY, priority 2014, dated 2019):

The compounds below were run against RIPK3 (Homo sapiens (Human), UniProt Q9Y572) (assay: RIPK3 HTRF Kinase Assay). Conditions: read-out: IC50 for Inhibition of RIPK3; RIPK3 1 nM; HTRF probe 23 nM; 60 min at room temperature.
Type: binding

First: O=C(Nc1cc(-c2c(-c3ccc(F)cc3)c3c(=O)[nH]ccc3n2Cc2ccc(C(F)(F)F)cc2F)ccn1)C1CC1
Second: CC(C)(C)OC(=O)Nc1cc(-c2c(-c3ccc(F)cc3)c3c(=O)[nH]ccc3n2Cc2ccc(C(F)(F)F)cc2F)ccn1
The IC50 of the first is lower: < 0.03 µM for the first, 0.031 to 0.1 µM for the second. The first is the more potent here.

Compared with `CC(C)NC(=O)Nc1cc(-c2c(-c3ccc(F)cc3)c3c(n2CC2CCOCC2)CCNC3=O)ccn1`, `O=C1NCCc2c1c(-c1ccc(F)cc1)c(-c1ccnc(NC3CC3)c1)n2Cc1ccc(C(F)(F)F)cc1F` is lower in IC50: 0.1 to 15 µM for the first, < 0.03 µM for the second. The second is the more potent here.

`CCCCn1c2c(c(-c3ccc(F)cc3)c1-c1ccncc1)C(=O)NCC2` and `O=C1NCCc2c1c(-c1ccc(F)cc1)c(-c1ccncc1)n2C1C=CCCC1` (stereo not drawn) fall in the same range of IC50: 0.031 to 0.1 µM for the first, 0.031 to 0.1 µM for the second.

Compared with `CCNc1cc(-c2c(-c3ccc(F)cc3)c3c(n2Cc2ccc(C(F)(F)F)cc2F)CCNC3=O)ccn1`, `Nc1cc(-c2c(-c3ccc(F)cc3)c3c(=O)[nH]ccc3n2Cc2ccc(C(F)(F)F)cc2F)ccn1` is lower in IC50: 0.1 to 15 µM for the first, < 0.03 µM for the second.

`Cc1ccc(-c2c3c(n(Cc4ccc(F)cc4C#N)c2-c2ccncc2)CCNC3=O)s1` was tested, and the IC50 was < 0.03 µM.
